Results taken from ChEMBL document CHEMBL1146037, “Design and discovery of a novel dipeptidyl-peptidase IV (CD26)-based prodrug approach” (J Med Chem, 2006).

The chains behind the UniProt entries cited, without tags or fusion partners.
UniProt P27487, whole entry: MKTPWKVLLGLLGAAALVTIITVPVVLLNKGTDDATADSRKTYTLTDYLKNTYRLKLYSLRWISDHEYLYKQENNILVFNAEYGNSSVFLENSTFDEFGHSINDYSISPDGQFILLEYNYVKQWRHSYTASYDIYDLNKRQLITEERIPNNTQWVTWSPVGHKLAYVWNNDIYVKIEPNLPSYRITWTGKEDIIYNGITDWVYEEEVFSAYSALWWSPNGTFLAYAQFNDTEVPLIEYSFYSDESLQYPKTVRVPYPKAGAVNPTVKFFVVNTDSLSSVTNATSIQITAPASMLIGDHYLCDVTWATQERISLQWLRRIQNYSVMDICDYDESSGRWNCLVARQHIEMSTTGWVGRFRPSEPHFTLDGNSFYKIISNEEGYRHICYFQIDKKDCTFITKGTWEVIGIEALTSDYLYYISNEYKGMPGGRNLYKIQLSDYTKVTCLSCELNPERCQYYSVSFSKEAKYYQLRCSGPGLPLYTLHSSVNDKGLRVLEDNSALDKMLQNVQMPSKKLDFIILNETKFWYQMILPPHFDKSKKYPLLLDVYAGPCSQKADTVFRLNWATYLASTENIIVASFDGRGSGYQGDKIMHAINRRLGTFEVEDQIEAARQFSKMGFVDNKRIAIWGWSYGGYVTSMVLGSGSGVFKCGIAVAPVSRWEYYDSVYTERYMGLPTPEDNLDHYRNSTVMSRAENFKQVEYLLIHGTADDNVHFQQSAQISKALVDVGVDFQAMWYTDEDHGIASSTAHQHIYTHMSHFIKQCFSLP

Biological target: Dipeptidyl peptidase 4 (Homo sapiens, UniProt P27487)
Experiment: Inhibition of CD26-catalyzed prodrug Val-Pro-NAP-TSAO-T conversion to parent drug NAP-TSAO-T
Assay type: ADME

Inhibition: 70%
SMILES: CC[C@H](C)[C@H](N)C(=O)N1CCC[C@H]1C(=O)N[C@H](C(=O)O)[C@@H](C)CC [DIPROTIN A]
